The subject of assay [1] is H1650 cells co-cultured with primary CAFs from human lung cancer. Briefly: Co-culture assay with cancer cells and cancer associated fibroblasts.
Assay [2] relates to A549 cells. Briefly: Cell proliferation assay with combination treatment (MTT). The settings on record: A549, combination with GDC-0449 (Vismodegib) or BMS-833923, 96 hours.
For assay [3], the system named is NCI-H2170 cells. The assay is described as above. The settings on record: H2170, combination with GDC-0449 (Vismodegib) or BMS-833923, 96 hours.
In assay [4] the test system is H1650 SP cells. Briefly: Tube formation assay with stem-like side population NSCLC cells. The note with it: on Matrigel, overnight.
Assay [5] deals with HEL 92.1.7 cells. Briefly: Cell proliferation assay (CCK8). The settings on record: 48h.
The test system of assay [6] is SET-2 cells. Briefly: Cell proliferation assay (CCK8). The settings on record: Ruxolitinib-resistant SET-2.
The test system of assay [7] is A549 side population (SP) stem-like cells. Briefly: Sphere formation assay with stem-like side population NSCLC cells. The note with it: A549 (KRAS mutation), 0.5-5.0 μM, Day 10.
Assay [8] deals with NCI-H1650 side population (SP) stem-like cells. Described as above. The settings on record: H1650 (EGFR mutation), 0.5-5.0 μM, Day 10.
Assay [9] deals with HEL 92.1.7 cells. Briefly: Cell cycle assay (flow cytometry). The settings on record: 12 hours of treatment at 10 μM. Background: In flow cytometry, cells or beads pass a laser one at a time.
Assay [10] relates to A549 cells. Briefly: QRT-PCR assay for stem cell transcription factors. The settings on record: 72 hours.
Assay [11] relates to H1650 cells. Briefly: QRT-PCR assay for stem cell transcription factors. The settings on record: 72 hours.
Assay [12] deals with Ba/F3 MPL W515L cells. Briefly: Cell proliferation assay (CCK8). The settings on record: read-out: IC50, inhibition of proliferation; Ba/F3 MPLW515L, 48h.
Assay [13] relates to Ba/F3 JAK2 V617F cells. Briefly: Cell proliferation assay (CCK8). The note with it: read-out: IC50, inhibition of proliferation; Ba/F3 JAK2V617F, 48h.

As to `CC1(C)c2cccc(C(=O)NO)c2CN1c1cnc(C(F)(F)F)cn1`, the “growth of H1650 cells co-cultured with primary CAFs” value in assay [1] (1:1 co-culture) was “inhibit the growth”. Further, the “effects on CAFs” value in assay [1] (1:1 co-culture with H1650 cells) was “minimal effects”. Further, the “cell viability, combination with Smoothened inhibitors” value in [2] and in assay [3] was “decreased cell viability” throughout. Also, in assay [4], the “tubule formation by H1650 SP cells” value was “inhibited tubule formation”. Further, the “growth of the HEL 92.1.7 cell line” value in assay [5] was “inhibited the growth”. Moreover, the “growth of a SET-2 cell line generated to be Ruxolitinib-resistant” value in [6] is “inhibited the growth”. Also, the “growth of stem-like cancer cells (sphere formation)” value in assay [7] and in [8] was “prevented growth” in each case. In addition, the cell cycle result in [9] is “induced G1 cell cycle arrest”. In addition, the “expression of Gli1 (mRNA)” value in assay [10] and in assay [11] was “decreased expression” throughout. For the same compound, the “expression of Sox2 (mRNA)” value in assay [10] and in assay [11] was “decreased expression” each time. Moreover, the “expression of Yap1 (mRNA)” value in assay [10] and in assay [11] was “decreased expression” in each case.

With `CC1(C)c2cccc(C(=O)NO)c2CN1c1nc2ccc(C(F)(F)F)cc2[nH]1`, the “cell viability, combination with Smoothened inhibitors” value in [2] and in assay [3] was “decreased cell viability” each time. In addition, the IC50 in assay [12] and in assay [13] was 1 to 10 µM each time. Also, the “expression of Gli1 (mRNA)” value in assay [10] and in [11] was “decreased expression” throughout. For the same compound, the “expression of Sox2 (mRNA)” value in assay [10] and in assay [11] was “decreased expression” throughout. Besides, the “expression of Yap1 (mRNA)” value in assay [10] and in [11] was “decreased expression” each time.

For `O=C(NO)c1cccc2c1CC1(CC2)CCN(c2cccc(C(F)(F)F)c2)C1=O` (stereo not drawn), the “tubule formation by H1650 SP cells” value in [4] is reported as “did not”. The “growth of stem-like cancer cells (sphere formation)” value in [7] and in [8] was “did not” in each case.

Regarding `O=C(NO)c1cccc2c1CC1(CC2)CCN(Cc2ccc(Cl)cc2)C1=O` (stereo not drawn), the “growth of the HEL 92.1.7 cell line” value in assay [5] was “did not”.

The record behind these values is patent US10538496B2, “Methods using HDAC11 inhibitors” (FORMA Therapeutics, Inc., priority 2016, dated 2020).
